Results from patent publication US11208498B2, “Treatment and prevention of cancer using HER3 antigen-binding molecules” (Hummingbird Bioscience Holdings Pte. Ltd., priority 2019, dated 2021).

System: N87 cells
Assay: Antibody internalisation by flow cytometry
Assay type: cell-based
Details: 0 min to 4.5 hour
Protocol: In further experiments, antibody internalisation was investigated by flow cytometry.
N87 cells were seeded in wells of 96-well tissue culture plates at a density of 50,000 cells/well, and allowed to adhere overnight (37° C., 5% CO2). 10D1F.FcA or trastuzumab were mixed with labelling reagent, and the labelled complexes were added to cells. Samples were harvested at 0 min, 10 min, 30 min, 1 hour, 2 hour and 4.5 hour time points, by aspiration of cell culture medium, washing with PBS and treatment with accutase. Accutase activity was neutralised, and cells were resuspended in FACs buffer and analysed by flow cytometry.

In the case of “trastuzumab: anti-HER2 antibody [reference compound]”, the “internalisation by flow cytometry” value is reported as “substantial internalisation”.
